The structures appear in SMILES notation.

Protein sequences, listed by entry. Tags and fused reporters are not part of them. Lines headed by an entry give the natural chain unless they say otherwise; changes in a name come on top.
UniProt P49761: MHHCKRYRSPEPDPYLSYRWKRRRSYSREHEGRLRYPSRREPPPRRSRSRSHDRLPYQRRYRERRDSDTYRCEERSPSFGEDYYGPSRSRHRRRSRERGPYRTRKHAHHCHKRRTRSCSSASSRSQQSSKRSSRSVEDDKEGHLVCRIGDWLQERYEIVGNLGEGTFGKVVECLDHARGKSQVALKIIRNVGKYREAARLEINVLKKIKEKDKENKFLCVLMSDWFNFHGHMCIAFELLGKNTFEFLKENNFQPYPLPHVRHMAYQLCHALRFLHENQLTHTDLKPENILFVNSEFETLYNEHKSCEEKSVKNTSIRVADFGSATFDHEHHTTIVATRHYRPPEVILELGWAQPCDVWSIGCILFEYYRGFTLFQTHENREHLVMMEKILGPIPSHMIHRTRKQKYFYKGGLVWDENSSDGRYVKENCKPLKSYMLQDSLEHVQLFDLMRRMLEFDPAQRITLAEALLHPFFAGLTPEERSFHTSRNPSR
UniProt P49760, whole entry: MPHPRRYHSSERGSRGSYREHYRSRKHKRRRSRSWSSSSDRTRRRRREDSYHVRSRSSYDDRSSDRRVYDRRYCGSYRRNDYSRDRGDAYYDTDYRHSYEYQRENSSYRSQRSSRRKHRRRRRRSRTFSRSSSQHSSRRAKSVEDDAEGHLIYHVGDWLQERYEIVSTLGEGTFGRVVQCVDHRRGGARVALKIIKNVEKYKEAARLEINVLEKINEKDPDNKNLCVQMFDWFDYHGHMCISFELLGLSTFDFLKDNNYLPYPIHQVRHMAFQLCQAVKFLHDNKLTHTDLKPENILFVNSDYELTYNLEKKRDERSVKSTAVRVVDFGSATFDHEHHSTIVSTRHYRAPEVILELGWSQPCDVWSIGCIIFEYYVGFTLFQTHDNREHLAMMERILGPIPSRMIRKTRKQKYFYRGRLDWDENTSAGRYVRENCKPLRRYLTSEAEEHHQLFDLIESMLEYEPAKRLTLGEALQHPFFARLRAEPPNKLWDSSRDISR
UniProt P49841: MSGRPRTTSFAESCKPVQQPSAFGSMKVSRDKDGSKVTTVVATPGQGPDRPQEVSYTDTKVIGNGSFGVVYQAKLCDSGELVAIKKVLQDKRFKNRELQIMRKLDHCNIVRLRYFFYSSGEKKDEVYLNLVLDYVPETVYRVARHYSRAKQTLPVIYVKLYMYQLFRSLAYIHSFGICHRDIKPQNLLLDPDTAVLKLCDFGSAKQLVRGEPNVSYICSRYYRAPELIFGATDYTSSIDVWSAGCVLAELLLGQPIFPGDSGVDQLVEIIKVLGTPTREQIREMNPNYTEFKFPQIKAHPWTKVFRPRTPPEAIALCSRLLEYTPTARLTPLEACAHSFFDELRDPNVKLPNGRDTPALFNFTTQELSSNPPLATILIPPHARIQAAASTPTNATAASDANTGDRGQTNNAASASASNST

Assay [1] concerns the target Dual specificity protein kinase CLK3 (Homo sapiens, UniProt P49761). In words: biochemical.
Assay [2] has as its target Dual specificity protein kinase CLK2 (Homo sapiens, UniProt P49760). In words: biochemical.
Assay [3] concerns the target T1, Dual specificity tyrosine-phosphorylation-regulated kinase 2 (Homo sapiens, UniProt Q92630).
T1 sequence (Q92630 whole entry): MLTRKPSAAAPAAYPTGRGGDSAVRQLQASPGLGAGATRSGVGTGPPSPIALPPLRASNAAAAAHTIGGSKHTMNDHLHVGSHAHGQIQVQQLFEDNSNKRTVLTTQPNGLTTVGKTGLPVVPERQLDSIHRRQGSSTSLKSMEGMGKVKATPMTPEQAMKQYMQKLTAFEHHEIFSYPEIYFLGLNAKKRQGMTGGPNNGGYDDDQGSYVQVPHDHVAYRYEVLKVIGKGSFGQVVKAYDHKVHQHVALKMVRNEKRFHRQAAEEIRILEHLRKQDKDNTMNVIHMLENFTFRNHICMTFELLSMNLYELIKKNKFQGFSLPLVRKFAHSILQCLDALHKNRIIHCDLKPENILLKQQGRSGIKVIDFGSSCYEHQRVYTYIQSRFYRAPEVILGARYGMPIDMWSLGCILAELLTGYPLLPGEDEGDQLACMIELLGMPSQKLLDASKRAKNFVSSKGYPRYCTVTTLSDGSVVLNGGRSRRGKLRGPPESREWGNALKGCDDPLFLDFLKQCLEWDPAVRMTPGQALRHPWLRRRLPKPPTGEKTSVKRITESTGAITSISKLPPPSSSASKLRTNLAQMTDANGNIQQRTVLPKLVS
In words: biochemical.

Assay [4] has as its target T2, Dual specificity tyrosine-phosphorylation-regulated kinase 3 (Homo sapiens, UniProt O43781).
T2 sequence (O43781 whole entry): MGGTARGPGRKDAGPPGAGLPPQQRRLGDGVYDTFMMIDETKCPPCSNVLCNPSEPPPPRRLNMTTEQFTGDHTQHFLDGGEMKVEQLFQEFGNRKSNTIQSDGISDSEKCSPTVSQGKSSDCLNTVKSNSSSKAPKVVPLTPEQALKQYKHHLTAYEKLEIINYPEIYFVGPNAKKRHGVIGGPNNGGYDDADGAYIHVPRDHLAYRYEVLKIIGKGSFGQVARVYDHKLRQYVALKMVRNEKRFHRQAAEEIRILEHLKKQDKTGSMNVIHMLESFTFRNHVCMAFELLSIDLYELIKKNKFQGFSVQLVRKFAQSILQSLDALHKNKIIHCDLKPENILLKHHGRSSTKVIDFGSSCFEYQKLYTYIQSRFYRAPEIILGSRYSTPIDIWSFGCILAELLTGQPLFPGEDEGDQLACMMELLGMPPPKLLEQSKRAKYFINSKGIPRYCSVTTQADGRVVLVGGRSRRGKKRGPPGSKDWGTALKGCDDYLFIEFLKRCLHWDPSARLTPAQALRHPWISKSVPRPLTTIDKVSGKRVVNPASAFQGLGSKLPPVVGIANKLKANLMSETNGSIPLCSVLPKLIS
The assay is described as follows: biochemical.

For assay [5], the target named is T3, Dual specificity tyrosine-phosphorylation-regulated kinase 4 (Homo sapiens, UniProt Q9NR20).
T3 sequence (Q9NR20 whole entry): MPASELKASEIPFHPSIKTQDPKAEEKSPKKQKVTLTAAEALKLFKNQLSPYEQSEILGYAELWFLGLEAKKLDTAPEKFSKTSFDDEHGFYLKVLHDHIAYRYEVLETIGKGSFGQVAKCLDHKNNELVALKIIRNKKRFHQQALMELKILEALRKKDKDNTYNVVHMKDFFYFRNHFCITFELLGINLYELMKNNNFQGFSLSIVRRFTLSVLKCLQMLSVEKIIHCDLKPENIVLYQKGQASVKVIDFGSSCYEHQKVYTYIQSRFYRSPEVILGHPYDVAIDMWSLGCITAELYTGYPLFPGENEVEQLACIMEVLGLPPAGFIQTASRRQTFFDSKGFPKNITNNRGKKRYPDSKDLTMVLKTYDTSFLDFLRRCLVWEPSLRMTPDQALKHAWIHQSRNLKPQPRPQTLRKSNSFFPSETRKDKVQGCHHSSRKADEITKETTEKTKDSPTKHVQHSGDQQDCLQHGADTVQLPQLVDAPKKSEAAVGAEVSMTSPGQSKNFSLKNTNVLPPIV
The assay is described as follows: biochemical.

Assay [6] has as its target T4, Glycogen synthase kinase-3 beta (Homo sapiens, UniProt P49841).
Assay [7] concerns the target T4, Glycogen synthase kinase-3 beta. In words: biochemical.

For the molecule `CCOC(=O)c1c(/C(C#N)=C\N)c2ccc(Cl)c(Cl)c2n1C`, the IC50 in assay [1] amounted to 0.966 µM.

With `CN1CCN(c2cc(C(=O)Nc3cc4cc(-c5cnn(C)c5)ccc4cn3)ccn2)CC1`, the IC50 was found to be 0.0036 µM in assay [2], 0.0407 µM in assay [3], 2.1 µM in assay [4] and 0.0864 µM in assay [5].

With `COc1ccc2nc3c(CO)cc(OC)cc3c(SC[C@H]3CCNC3)c2c1`, the IC50 in assay [4] was 0.112 µM. This counts as sub-micromolar.

Consider `CC(C)CN1CCC(C(=O)Nc2cc3cc(-c4cnn(C)c4)ccc3cn2)CC1`, for which the Kd in assay [6] was 0.00621 µM. The same molecule returned an IC50 in assay [7] of 0.0456 µM.

Molecule `CCN1CCN(Cc2ccc(Nc3ncc(F)c(-c4cc(F)c5nc(C)n(C(C)C)c5c4)n3)nc2)CC1` [ABEMACICLIB] registered an IC50 in assay [3] of 0.0254 µM. That is a double-digit nanomolar value.

Usually IC50 stands for the concentration that inhibits the measured activity by half. A low value points to greater potency. The term Kd denotes the constant that tells how readily two partners part at equilibrium. Read a low Kd as a tighter complex.

These data come from ChEMBL document CHEMBL5247649, “Comparative Efficacy and Selectivity of Pharmacological Inhibitors of DYRK and CLK Protein Kinases” (J Med Chem, 2023).
